The text below walks through data of patent publication US20240327535A1 (EISAI R AND D MANAGEMENT, published 2024).

The target of the assay is T1, human BCMA on NCI-H929, OPM2 and Raji cells (human, UniProt Q02223 1-184).
T1 construct: endogenous BCMA of human cell lines; also called TNFRSF17; CD269
T1 chain: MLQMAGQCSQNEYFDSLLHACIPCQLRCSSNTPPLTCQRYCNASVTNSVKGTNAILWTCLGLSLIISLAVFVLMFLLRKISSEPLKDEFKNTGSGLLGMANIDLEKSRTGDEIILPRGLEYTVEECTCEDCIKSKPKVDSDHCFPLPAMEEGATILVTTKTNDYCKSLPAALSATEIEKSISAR
The assay can be described thus: flow cytometry, NCI-H929 cells. Background: Flow cytometry measures light scatter and fluorescence of single cells or particles in a stream.

B1: AB200-mcMMAF-05 (antibody, human IgG1, kappa, V domains shown)
VH: QVQLVQSGAEVKKPGSSVKVSCKASGGTFSNYWMHWVRQAPGQGLEWMGATYRGHSDTYYNQKFKGRVTITADKSTSTAYMELSSLRSEDTAVYYCARGAIYDGYDVLDNWGQGTLVTVSS
VL: DIQMTQSPSSLSASVGDRVTITCSASQDISNYLNWYQQKPGKAPKLLIYYTSNLHSGVPSRFSGSGSGTDFTLTISSLQPEDFATYYCQQYRKLPWTFGQGTKLEIKR
modifications: mcMMAF (ADL10-MMAF) linker-payload on cysteine residues of the antibody, DAR 4.0
notes: antibody-drug conjugate; also called AB200-ADL10-MMAF
With B1, the Kd (commonly a measure of binding affinity in units of concentration) worked out at 6.5 nM.
